Read-outs that look alike come from different tables or passages of the source.
Key:
[1] = target: Im7 immobilization unit (genetically modified colicin immunity protein 7 flanked by Cys-containing coiled-coil segments), covalently coupled to Sulfo-Link agarose beads
[2] = target: Im7 immobilization unit (genetically modified colicin immunity protein 7 flanked by Cys-containing coiled-coil segments), covalently coupled to Sulfo-Link agarose beads; remark: listed apart in the source
[3] = target: Im7 immobilization unit (genetically modified colicin immunity protein 7 flanked by Cys-containing coiled-coil segments), covalently coupled to Sulfo-Link agarose beads; remark: listed apart in the source

For “human calnexin (CNX) with PSC-cleavable C-terminal CL7-tag (from UniProt P27824 21-592)”, the EL Amount [1] was 39 mg, the FT Loss (%) [2] was 25% and the FT Loss (%) [3] was 30%.

From patent US20240417426A1
